Values of other authors, collected in patent US7163589B2 (priority 2001, dated 2007).

Conditions: cited from earlier work

Substance: 2-3 dihydrodecafluoropentane
- Solubility of Solvent in Water: 140 ppm
- Solubility of Water in Solvent: 490 ppm
